Values of other authors, collected in US20060074108A1, “Matrix metalloprotease (MMP) inhibitors and their application in cosmetic and pharmaceutical composition” (Bioderm Research, priority 2004, published 2006).

Amino acid sequences for entries named in this document (tags omitted). Residues count along the entry.
UniProt P14780, 94-707, species assumed: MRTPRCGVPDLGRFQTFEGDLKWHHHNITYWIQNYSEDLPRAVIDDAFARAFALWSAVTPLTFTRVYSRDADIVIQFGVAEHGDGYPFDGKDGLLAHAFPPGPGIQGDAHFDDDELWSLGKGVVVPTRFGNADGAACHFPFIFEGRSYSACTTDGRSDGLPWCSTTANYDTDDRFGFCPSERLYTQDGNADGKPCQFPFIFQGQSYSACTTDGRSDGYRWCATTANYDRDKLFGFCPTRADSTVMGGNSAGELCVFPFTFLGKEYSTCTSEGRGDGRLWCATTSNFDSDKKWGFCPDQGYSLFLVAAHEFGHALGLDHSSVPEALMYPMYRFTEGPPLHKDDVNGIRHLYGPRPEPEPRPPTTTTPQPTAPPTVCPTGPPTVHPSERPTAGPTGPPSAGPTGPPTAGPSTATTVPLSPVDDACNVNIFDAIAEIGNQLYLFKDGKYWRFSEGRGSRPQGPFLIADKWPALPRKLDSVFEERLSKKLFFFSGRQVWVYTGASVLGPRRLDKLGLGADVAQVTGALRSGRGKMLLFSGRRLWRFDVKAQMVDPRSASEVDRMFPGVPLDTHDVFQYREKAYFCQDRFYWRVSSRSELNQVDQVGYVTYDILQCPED

Target: MMP-9 (Homo sapiens, UniProt P14780)
Settings: MMP-13-selective compound; cited from earlier work

## Cc1cc(C)c(N(Cc2ccccc2)S(=O)(=O)c2ccc(OCCNC(=O)c3cc4ccccc4o3)cc2)c(C(=O)NO)c1 [WAY-170523]
  selectivity against MMP-9: 56 fold
